Test results: patent US20140302113A1, “SYSTEMS, DEVICES, AND METHODS FOR EMBEDDING DRUG MOLECULES INTO MEDICAL CATHETERS OR TUBES” (priority 2011, published 2014)

Assay: Lidocaine loading process into Foley catheter from loading solution at 40-41° C.
Type: physicochemical
Conditions: water based loading solution (glycerin, Natrasol, methyl paraben)
Method: This solution can also function as lubricant jelly. […] The bottle was then placed into a Styrofoam® box and heated in an oven with digital temperature control. The temperature inside the box was maintained at about 40-41° C. for the next 48 days. […] Observations were recorded at days 2, 9, 16, 26, 38 (start of room temperature storage), and 69.

In the case of CCN(CC)CC(=O)Nc1c(C)cccc1C [Lidocaine, lidocaine], the “saturation concentration of lidocaine in the loading solution” value is reported as 4.6 mg/mL.
